Assay results reported in ChEMBL document CHEMBL1128962, “Serotoninergic 5-HT3 and 5-HT4 receptor activities of dihydrobenzofuran carboxylic acid derivatives” (Bioorg Med Chem Lett, 1996).

Chains of the proteins cited; added tags and fusions are not shown. Lines headed by an entry give the natural chain unless they say otherwise; changes in a name come on top.
UniProt Q62758: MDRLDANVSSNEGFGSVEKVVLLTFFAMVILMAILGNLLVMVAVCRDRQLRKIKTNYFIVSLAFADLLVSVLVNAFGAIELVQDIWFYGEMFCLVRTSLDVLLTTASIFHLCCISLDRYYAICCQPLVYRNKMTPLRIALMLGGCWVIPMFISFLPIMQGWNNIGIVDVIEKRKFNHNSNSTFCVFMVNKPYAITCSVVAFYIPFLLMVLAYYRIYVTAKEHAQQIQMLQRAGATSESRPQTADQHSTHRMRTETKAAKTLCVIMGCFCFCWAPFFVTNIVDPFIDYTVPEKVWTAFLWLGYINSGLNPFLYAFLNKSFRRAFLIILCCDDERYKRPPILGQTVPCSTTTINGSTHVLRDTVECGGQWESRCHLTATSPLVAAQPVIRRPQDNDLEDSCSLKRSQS
UniProt P35563, whole entry: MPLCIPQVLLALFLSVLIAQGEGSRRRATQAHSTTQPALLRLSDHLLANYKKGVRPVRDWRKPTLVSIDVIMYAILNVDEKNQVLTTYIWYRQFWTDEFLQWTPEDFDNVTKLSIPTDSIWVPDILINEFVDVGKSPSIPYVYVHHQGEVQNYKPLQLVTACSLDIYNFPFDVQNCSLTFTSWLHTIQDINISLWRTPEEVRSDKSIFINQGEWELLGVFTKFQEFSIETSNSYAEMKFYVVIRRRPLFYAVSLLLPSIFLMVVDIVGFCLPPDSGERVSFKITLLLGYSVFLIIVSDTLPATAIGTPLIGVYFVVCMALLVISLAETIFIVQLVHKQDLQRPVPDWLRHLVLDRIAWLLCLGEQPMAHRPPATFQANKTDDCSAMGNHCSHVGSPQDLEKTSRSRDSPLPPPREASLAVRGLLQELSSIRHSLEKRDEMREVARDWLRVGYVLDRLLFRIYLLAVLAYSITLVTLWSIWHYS
UniProt Q9JJ16: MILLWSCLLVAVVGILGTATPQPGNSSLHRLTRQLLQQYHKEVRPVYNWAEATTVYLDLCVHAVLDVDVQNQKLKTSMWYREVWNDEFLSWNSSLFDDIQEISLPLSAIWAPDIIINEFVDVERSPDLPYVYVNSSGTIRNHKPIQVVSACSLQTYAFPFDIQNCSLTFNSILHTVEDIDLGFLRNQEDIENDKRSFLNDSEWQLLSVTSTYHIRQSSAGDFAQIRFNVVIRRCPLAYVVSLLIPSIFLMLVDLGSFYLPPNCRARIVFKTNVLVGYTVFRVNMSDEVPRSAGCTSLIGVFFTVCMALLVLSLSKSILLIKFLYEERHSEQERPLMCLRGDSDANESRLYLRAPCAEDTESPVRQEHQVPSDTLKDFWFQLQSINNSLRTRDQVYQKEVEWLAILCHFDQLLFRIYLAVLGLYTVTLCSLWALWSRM

Key:
[1] = target: T1, 5-hydroxytryptamine receptor 4 (Rattus norvegicus, UniProt Q62758); test: In vitro relaxation of carbachol pre-contracted rat oesophageal TMM.; assay type: functional
[2] = target: T1, 5-hydroxytryptamine receptor 4; test: Binding affinity at 5-hydroxytryptamine 4 receptor in rat striatum by [3H]GR-113808 displacement.; assay type: tissue-based
[3] = target: Serotonin 3 (5-HT3) receptor (Rattus norvegicus, UniProt P35563+Q9JJ16); test: Binding affinity at 5-hydroxytryptamine 3 receptor in rat entorhinal cortex by [3H]BRL-43694 displacement.; assay type: tissue-based

SMILES	EC50 [1]	Ki [2]	Ki [3]
CCN(CC)CCNC(=O)c1cc(Cl)c(N)cc1OC [METOCLOPRAMIDE]	1920 nM	900 nM	
NCCc1c[nH]c2ccc(O)cc12 [SEROTONIN]	17.1 nM	37.4 nM	87 nM
